Chains of the proteins cited; added tags and fusions are not shown. Residues count along the entry.
UniProt Q8R0I0, 18-805: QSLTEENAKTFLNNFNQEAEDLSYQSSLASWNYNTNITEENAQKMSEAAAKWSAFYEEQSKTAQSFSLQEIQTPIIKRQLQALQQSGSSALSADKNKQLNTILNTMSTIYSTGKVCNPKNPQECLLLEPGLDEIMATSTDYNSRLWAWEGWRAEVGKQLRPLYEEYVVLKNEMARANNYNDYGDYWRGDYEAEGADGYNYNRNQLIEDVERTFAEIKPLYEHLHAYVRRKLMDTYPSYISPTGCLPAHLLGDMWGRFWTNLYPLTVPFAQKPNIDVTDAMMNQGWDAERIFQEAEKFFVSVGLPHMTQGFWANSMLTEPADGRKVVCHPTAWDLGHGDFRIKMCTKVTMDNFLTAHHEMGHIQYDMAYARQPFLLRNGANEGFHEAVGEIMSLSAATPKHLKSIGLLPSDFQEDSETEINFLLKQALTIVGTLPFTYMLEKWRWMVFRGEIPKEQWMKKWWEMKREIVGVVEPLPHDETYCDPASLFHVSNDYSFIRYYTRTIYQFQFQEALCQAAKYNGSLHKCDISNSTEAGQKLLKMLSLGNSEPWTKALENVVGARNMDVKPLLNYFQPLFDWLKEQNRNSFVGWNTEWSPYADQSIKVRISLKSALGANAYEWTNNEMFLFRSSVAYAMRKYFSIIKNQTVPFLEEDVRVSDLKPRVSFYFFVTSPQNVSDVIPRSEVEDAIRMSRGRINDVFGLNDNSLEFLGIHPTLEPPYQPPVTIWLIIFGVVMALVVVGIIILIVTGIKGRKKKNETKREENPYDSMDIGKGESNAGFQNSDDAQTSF
UniProt Q9BYF1, 18-805: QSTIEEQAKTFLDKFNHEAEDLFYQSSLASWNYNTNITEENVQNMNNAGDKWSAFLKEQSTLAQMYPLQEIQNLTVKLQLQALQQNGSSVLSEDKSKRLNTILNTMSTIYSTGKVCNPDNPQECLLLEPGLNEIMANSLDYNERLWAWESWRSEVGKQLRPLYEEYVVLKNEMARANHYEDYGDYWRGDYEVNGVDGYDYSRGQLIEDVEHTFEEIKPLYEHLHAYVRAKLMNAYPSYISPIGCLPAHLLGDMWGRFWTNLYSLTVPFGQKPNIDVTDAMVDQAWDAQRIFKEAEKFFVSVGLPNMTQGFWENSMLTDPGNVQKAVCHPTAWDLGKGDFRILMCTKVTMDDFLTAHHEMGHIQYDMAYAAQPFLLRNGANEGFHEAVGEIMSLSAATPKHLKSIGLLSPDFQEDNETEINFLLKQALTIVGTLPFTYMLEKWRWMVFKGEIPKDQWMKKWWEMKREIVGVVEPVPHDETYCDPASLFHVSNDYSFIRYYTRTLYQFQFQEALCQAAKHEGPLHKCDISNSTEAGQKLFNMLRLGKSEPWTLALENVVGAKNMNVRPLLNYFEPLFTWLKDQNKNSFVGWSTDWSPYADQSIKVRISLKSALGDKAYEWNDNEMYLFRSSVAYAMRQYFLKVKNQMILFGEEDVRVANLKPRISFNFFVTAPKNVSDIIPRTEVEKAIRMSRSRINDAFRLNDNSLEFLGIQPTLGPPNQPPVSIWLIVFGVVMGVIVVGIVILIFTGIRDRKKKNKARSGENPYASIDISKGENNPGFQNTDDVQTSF

According to PMC4804635 (European journal of pharmacology, 2016):

Legend:
ACE2 in murine heart = ACE2 in murine heart (Mus musculus, UniProt Q8R0I0); experiment: ACE2 activity assay in murine heart homogenate; type: biochemical
ACE in murine heart = biological target: T1, ACE in murine heart (Mus musculus, UniProt P09470); experiment: ACE activity assay in murine heart homogenate; type: biochemical; details: tissue lysate, 4 h
T1 sequence (P09470 35-1312): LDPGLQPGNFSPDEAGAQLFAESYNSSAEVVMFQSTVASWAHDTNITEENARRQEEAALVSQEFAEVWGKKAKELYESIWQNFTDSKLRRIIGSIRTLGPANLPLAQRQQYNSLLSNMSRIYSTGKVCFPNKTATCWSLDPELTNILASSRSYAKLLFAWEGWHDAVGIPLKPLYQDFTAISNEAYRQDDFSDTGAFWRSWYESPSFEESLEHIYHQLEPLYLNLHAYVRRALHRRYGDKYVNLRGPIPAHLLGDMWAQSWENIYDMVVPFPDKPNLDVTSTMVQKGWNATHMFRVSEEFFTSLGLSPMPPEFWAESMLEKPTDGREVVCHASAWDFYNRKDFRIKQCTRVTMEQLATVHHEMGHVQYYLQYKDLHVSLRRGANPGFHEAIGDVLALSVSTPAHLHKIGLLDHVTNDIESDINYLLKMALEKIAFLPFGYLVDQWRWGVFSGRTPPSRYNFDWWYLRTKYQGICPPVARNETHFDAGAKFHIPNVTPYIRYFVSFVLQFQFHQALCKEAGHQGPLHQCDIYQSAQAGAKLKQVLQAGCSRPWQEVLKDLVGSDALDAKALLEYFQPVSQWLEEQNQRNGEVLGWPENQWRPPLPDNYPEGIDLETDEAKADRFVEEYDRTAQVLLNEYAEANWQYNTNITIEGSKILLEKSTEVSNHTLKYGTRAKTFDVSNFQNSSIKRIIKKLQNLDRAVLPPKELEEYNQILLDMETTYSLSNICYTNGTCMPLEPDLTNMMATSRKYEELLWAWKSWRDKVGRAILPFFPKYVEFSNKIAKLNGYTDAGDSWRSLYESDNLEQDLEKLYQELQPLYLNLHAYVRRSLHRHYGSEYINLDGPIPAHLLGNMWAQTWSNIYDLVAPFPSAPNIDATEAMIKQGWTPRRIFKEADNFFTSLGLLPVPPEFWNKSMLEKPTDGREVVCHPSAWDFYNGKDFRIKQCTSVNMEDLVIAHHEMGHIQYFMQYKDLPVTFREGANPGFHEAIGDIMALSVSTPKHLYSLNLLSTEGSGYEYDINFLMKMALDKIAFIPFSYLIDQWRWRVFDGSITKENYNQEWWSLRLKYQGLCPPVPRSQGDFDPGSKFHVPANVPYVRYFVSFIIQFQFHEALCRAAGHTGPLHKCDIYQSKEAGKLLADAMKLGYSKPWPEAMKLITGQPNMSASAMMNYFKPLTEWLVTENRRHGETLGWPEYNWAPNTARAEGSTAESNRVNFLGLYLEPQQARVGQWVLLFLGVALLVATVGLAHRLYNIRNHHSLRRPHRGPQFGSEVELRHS

[1] = biological target: ACE2 in murine Lin- cells (Mus musculus, UniProt Q8R0I0); experiment: ACE2 activity assay in murine Lin- cell lysates; type: biochemical; details: cell lysate, 4 h, n=5
ACE in murine Lin- cells = biological target: T2, ACE in murine Lin- cells (Mus musculus, UniProt P09470); experiment: ACE activity assay in murine Lin- cell lysates; type: biochemical; details: cell lysate, 4 h, n=5
T2 sequence (P09470 35-1312): T1 sequence (P09470 35-1312)

[2] = biological target: ACE2 in human CD34+ cells (Homo sapiens, UniProt Q9BYF1); experiment: ACE2 activity assay in human CD34+ cell lysates
Human MNC ACE2 = Human MNC ACE2 (Homo sapiens, UniProt Q9BYF1); experiment: ACE2 activity assay in human mononuclear cell lysates; details: listed as MLN-4760-B
Murine MNC ACE = biological target: T3, Murine MNC ACE (Mus musculus, UniProt P09470); experiment: ACE activity assay in murine mononuclear cell lysates; details: cell lysate, 4 h
T3 sequence (P09470 35-1312): T1 sequence (P09470 35-1312)

Murine MNC ACE2 = Murine MNC ACE2 (Mus musculus, UniProt Q8R0I0); experiment: ACE2 activity assay in murine mononuclear cell lysates

## CC(C)C[C@H](N[C@@H](Cc1cncn1Cc1cc(Cl)cc(Cl)c1)C(=O)O)C(=O)O [isomer B, (2S)-2-[[(2S)-3-[3-[(3,5-dichlorophenyl)methyl]imidazol-4-yl]-1-hydroxy-1-oxopropan-2-yl]amino]-4-methylpentanoic acid]
ACE2 in murine heart
  selectivity for ACE2 over ACE in murine heart: 100 fold
ACE2 in murine heart; tissue lysate, 4 h
  Imax at ACE2 in murine heart: 54±4%
ACE in murine heart
  Imax at ACE in murine heart: 20±3%
[1]
  Imax / inhibition of ACE2 in murine Lin- cells: 25%
ACE in murine Lin- cells
  Imax / inhibition of ACE in murine Lin- cells: less than 10±2%
[2]
  selectivity for ACE2 over ACE in human CD34+ cells: 63 fold
Human MNC ACE2
  selectivity for ACE2 over ACE in human MNCs: 28 fold
Murine MNC ACE
  Imax at ACE in murine MNCs: 22±1%
Murine MNC ACE2
  selectivity for ACE2 over ACE in murine MNCs: 228 fold
Murine MNC ACE2; cell lysate, 4 h
  Imax at ACE2 in murine MNCs: 43±1%
